# Reported melting point values for industrial, environmental and drug-like chemicals

Values as listed in the OPERA 2.9 repository of K. Mansouri.

The melting point is given in degrees Celsius.

* CC(=O)CC(=O)Nc1cccc(Cl)c1 [Butanamide, N-(3-chlorophenyl)-3-oxo-]: mp 106 °C
* CC(CCC(N)=O)n1nnc2ccccc21 (centres undefined) [4-(1H-Benzotriazol-1-yl)pentanamide]: mp 102 °C
* CN(C)c1nc(Cl)c(C=O)s1 [4-chloro-2-(dimethylamino)-1,3-thiazole-5-carbaldehyde]: mp 110 °C
* Nc1ncc(Cc2ccccc2)s1 [5-benzyl-1,3-thiazol-2-amine]: mp 107 °C
* CC(=O)c1ccc(-c2ccccc2)s1 [1-(5-phenylthiophen-2-yl)ethanone]: mp 116 °C
* Nc1ccc(-n2ccnc2)nc1 [6-(1H-imidazol-1-yl)pyridin-3-amine]: mp 115 °C
* C=C(C)C(=O)NCOCCCC [N-(Butoxymethyl)methacrylamide]: mp -8 °C
* Cn1cc(C#N)cn1 [1-Methyl-1H-pyrazole-4-carbonitrile]: mp 60 °C
* CN(C)S(=O)(=O)c1ccc(N)c(N)c1 [3,4-diamino-N,N-dimethylbenzenesulfonamide]: mp 194 °C
* Brc1ccc2[nH]c3c(c2c1)CNCC3 [8-bromo-2,3,4,5-tetrahydro-1H-pyrido[4,3-b]indole]: mp 217 °C
* Cc1cc(=S)nc(C(C)C)[nH]1 [2-isopropyl-6-methylpyrimidine-4-thiol]: mp 162 °C
* NS(=O)(=O)c1ccc(NC(=O)CCl)cc1 [2-chloro-N-(4-sulfamoylphenyl)acetamide]: mp 157 °C
* Nc1ccccc1C(=O)NCCCN1CCOCC1 [2-Amino-N-[3-(morpholin-4-yl)propyl]benzamide]: mp 196 °C
* NS(=O)(=O)c1ccc(OCCBr)cc1 [4-(2-bromoethoxy)benzenesulfonamide]: mp 112 °C
* CCN1CCc2nc(N)sc2C1 [5-Ethyl-4,5,6,7-tetrahydro-thiazolo[5,4-c]pyridin-2-ylamine]: mp 75.5 °C
* CN(C)S(=O)(=O)c1cc(N)ccc1Cl [5-Amino-2-chloro-N,N-dimethylbenzene-1-sulfonamide]: mp 127 °C
* CC(C)CC1N=C(O)N=C1O (centres undefined) [2,4-IMIDAZOLIDINEDIONE, 5-(2-METHYLPROPYL)-]: mp 216 °C
* NC(=O)C1CCN(C(=O)CCl)CC1 [1-(chloroacetyl)piperidine-4-carboxamide]: mp 137 °C
* CN(C)c1ccc(C(N)=S)cc1 [Benzenecarbothioamide, 4-(dimethylamino)-]: mp 118 °C
* OCc1ccc(N2CCCC2)cc1 [(4-pyrrolidin-1-ylphenyl)methanol]: mp 62 °C
* COC(=O)c1ccc(C)cc1C1=NC(=O)C(C)(C(C)C)N1 (centres undefined): mp 113 °C
* COc1c(OC)c(OC(C)=O)c2cc(F)ccc2c1OC(C)=O [6-Fluoro-2,3-dimethoxy-1,4-naphthalenediyl diacetate]: mp 102 °C
* Cc1cccc(NC(=O)C2CCCNC2)n1 (centres undefined) [N-(6-Methylpyridin-2-yl)piperidine-3-carboxamide]: mp 125 °C
* NS(=O)(=O)c1cc(C(=O)O)ccc1F [4-fluoro-3-sulfamoylbenzoic acid]: mp 237 °C
* COc1ccc([N+](=O)[O-])cc1S(=O)(=O)Cl [2-Methoxy-5-nitrobenzene-1-sulfonyl chloride]: mp 86 °C
* Cn1c(NCCO)nc2ccccc21 [2-(1-Methyl-1H-benzoimidazol-2-ylamino)-ethanol]: mp 76 °C
* Cc1c(-c2csc(N)n2)sc2ccccc12 [4-(3-Methyl-1-benzothiophen-2-yl)-1,3-thiazol-2-amine]: mp 171 °C
* O=C(O)c1c[nH]c2ccc(Br)cc12 [5-bromo-1H-indole-3-carboxylic acid]: mp 239 °C
* CC(C)(C)NC(=O)c1ccccc1C(=O)O [2-[(tert-butylamino)carbonyl]benzoic acid]: mp 147 °C
* O=Cc1csc(-c2cccc(Br)c2)n1 [2-(3-Bromophenyl)-1,3-thiazole-4-carbaldehyde]: mp 100 °C
* Cc1n[nH]c(=S)n1C1CCCCC1 [4-cyclohexyl-5-methyl-4H-1,2,4-triazole-3-thiol]: mp 165 °C
* Nc1ccc(N2CCCC2)nc1 [6-pyrrolidin-1-ylpyridin-3-amine]: mp 84 °C
* CCC(C)(C)[C@H]1CC[C@H](O)CC1 [trans-4-(1,1-Dimethylpropyl)cyclohexanol]: mp 25.5 °C
* Cc1cc2c3ccccc3ccc2c2ccccc12 [6-Methylchrysene]: mp 160 °C
* NNc1nccc2sccc12 [4-Hydrazinylthieno[3,2-c]pyridine]: mp 192 °C
* O=C1c2ccccc2C(=O)N1CC1CO1 (centres undefined) [1H-Isoindole-1,3(2H)-dione, 2-(2-oxiranylmethyl)-]: mp 99 °C
* S=c1[nH]nc(-c2cccs2)n1-c1ccccc1: mp 270 °C
* Nc1ccc(S(=O)(=O)NC2CC2)cc1 [4-amino-N-cyclopropylbenzenesulfonamide]: mp 146 °C
* Cn1c(-c2ccccc2Cl)n[nH]c1=S [5-(2-chlorophenyl)-4-methyl-4H-1,2,4-triazole-3-thiol]: mp 145 °C
* O=C(O)CN1C(=O)CCC1=O [N-Succinylglycine]: mp 92 °C
* CCOc1cc(C#N)ccc1O [3-ethoxy-4-hydroxybenzonitrile]: mp 76 °C
* COc1ccc(C(=O)O)cc1S(N)(=O)=O [4-methoxy-3-sulfamoylbenzoic acid]: mp 284 °C
* CCOC(=O)c1ccc(N=CN(C)c2ccccc2)cc1: mp 27 °C
* Cc1ccc(N=C=S)c([N+](=O)[O-])c1 [4-Methyl-2-nitrophenyl isothiocyanate]: mp 64.5 °C
* COCCCn1c(=S)[nH]c2ccccc2c1=O: mp 181 °C

3 of these entries, quoted again:

* Nc1ccc(N2CCCC2)nc1 [6-pyrrolidin-1-ylpyridin-3-amine]: mp 84 °C
* Brc1ccc2[nH]c3c(c2c1)CNCC3 [8-bromo-2,3,4,5-tetrahydro-1H-pyrido[4,3-b]indole]: mp 217 °C
* NNc1nccc2sccc12 [4-Hydrazinylthieno[3,2-c]pyridine]: mp 192 °C

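OPERA's authors assembled the values from existing databases and did not measure them anew. The files give a single number for a compound and property, which may rest on several reports. Method and conditions are not stated for these values. The measured form (salt, isomer or mixture) is not always the one drawn. Some entries may be limits or estimates that an upstream database listed as plain numbers.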